Structures are written as SMILES. Several values for one entry are separate records, joined by “and”; a condition that tells them apart may be missing. Equal values may be shown once. Only a part is listed here, and it is no random draw. Records with an inconclusive call do not appear. Activity calls are given as the source filed them. Calls come from the whole dose curve; as a rule, active = well fitted inhibition curve with a large enough effect; inconclusive = small, poorly fitted or top-dose-only effect, or effect the other way, or another doubt; inactive = no such curve, though single readings can be large or run the other way.

The target of the test is Lysosomal acid glucosylceramidase (Homo sapiens) (UniProt P04062). The experiment in a line: qHTS Assay for Inhibitors and Activators of N370S glucocerebrosidase as a Potential Chaperone Treatment of Gaucher Disease.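 Note: 0% = full enzyme activity and -100% = no enzyme basal.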 As to conditions: N370S GC spleen homogenate, 4MU-glucoside fluorescence; at 59.4 µM (top of the series) unless noted. From the text: NIH Chemical Genomics Center [NCGC]
NIH Molecular Libraries Probe Production Centers Network [MLPCN]
Assay Submitter (PI): Wei Zheng
Glucocerebrosidase (GC) catalyzes the hydrolysis of beta-glucocerebroside to glucose and ceramide in lysosomes. Mutations in the glucocerebrosidase gene result in Gaucher disease, an autosomal recessive lysosomal storage disorder. Many of the mutations encountered in patients with Gaucher disease are missense alterations that may cause misfolding, decreased stability and/or mistrafficking of this lysosomal protein. […] These inhibitors include iminosugar analogs and three non-iminosugar inhibitors identified from a previous HTS of 62,000 compounds with the wild type recombinant enzyme. However, the enhancement of enzyme activity by the chaperone action of an enzyme inhibitor must be balanced against the direct inhibition of the enzyme. An enzyme activator could also function as a chaperone by binding to the enzyme and helping to correct its misfolding and mistrafficking. While activators for GC have not yet been identified, they may have better therapeutic potential than inhibitors. Therefore the discovery and development of chemical activators may provide a new strategy for the chaperone therapy.
We have optimized a new assay using N370S mutant GC derived from the spleen of a Gaucher patient. […] In addition, the MLPCN compound library has expanded, which increases the chance of finding new and better probes.
NCGC Assay Protocol Summary:
This is a fluorogenic enzyme assay with 4-methylumbelliferyl-beta-D-glucopyranoside as the substrate and N370S glucocerebrosidase from human spleen homogenate as the enzyme preparation. Upon the hydrolysis of this fluorogenic substrate, the resulting product, […] which can be detected by a standard fluorescence plate reader. Data were normalized to the controls for basal activity (without enzyme) and 100% activity (with enzyme). The AC50 values were determined from concentration-response data modeled with the standard Hill equation.
Assay buffer: 50 mM citric acid (titrated with potassium phosphate to pH 5.0), 100 mM potassium chloride, 10 mM sodium chloride, 1 mM magnesium chloride, 0.01% Tween-20.
1536-well assay protocol:
(1) Add 2 ul/well of spleen homogenate (27 ug final)
(2) Add 23 nL compounds in DMSO solution. The final titration was 0.5 nM to 58 uM.
(3) Add 2 ul of substrate (1 mM final)
(4) Incubate at 37C for 40 min.
(5) Add 2 ul stop solution (1M NaOH and 1M Glycine mixture, pH 10)
(6) Detect the assay plate in a ViewLux plate reader (PerkinElmer) with Ex=365 nm and Em=440nm.
Keywords: Glucocerebrosidase, beta-glucosidase, Gaucher Disease, pharmacological chaperone, chaperone therapy, high throughput screening, glucocerebrosidase inhibitor, MLSMR, MLSCN, NIH Roadmap, qHTS and NCGC
For `C[N+]1=C2C=CC=CC=C2SC12C([N+](=O)[O-])=CC([N+](=O)[O-])=C[C-]2[N+](=O)[O-]` (configuration not stated), the activity change, negative = inhibition was inactive: -10.3%.
On to `CC(=O)C1=CCCC2CCC1N2` (configuration not stated), for which the activity change, negative = inhibition was inactive: -13.3% and inactive: 1.18%.
As for `CC(C)=N/N=C(\N)N[N+](=O)[O-]`, the figure is inactive: 8.6%; as for `COc1ccc(C2=NCC(CBr)S2)cc1` (configuration not stated), inactive: -19.8%; as for `Cc1ccc(NP(=O)(Oc2ccccc2)Oc2ccccc2)nc1`, inactive: -7.92%.
On to `CCc1nc2c(n1)c1c(non1O)c1c2no[n+]1[O-]`, for which the activity change, negative = inhibition is inactive: -5.92%.
As for `O=[N+]([O-])c1cccc2n[nH]nc12`, the activity change, negative = inhibition is inactive: -11.3%.
Take `CC(=O)N1C2C3N(C(C)=O)C1C1N(C(C)=O)C(C(N1C(C)=O)N3C(C)=O)N2C(C)=O`: the activity change, negative = inhibition is inactive: 2.27%.
As to `O=C(OC1CN2CCC1CC2)c1cccc([N+](=O)[O-])c1` (configuration not stated), the activity change, negative = inhibition was inactive: -8.6%.
As for `CCOC(=O)c1ccc(NC(=O)C(C)(CCl)SC)cc1` (configuration not stated), the activity change, negative = inhibition is inactive: -22.9%.
`CCC(C)N(CC(C)C)C(=S)SC(NC(C)=O)C(Cl)(Cl)Cl` (configuration not stated): the activity change, negative = inhibition was inactive: 4.7%.
For the compound `COP1(=S)c2c(C)nn(CCC#N)c2N=C(c2ccc(F)cc2)N1C` (configuration not stated), the activity change, negative = inhibition was inactive: -6.58%.
As to `O=C(COc1ccccc1)OC1CN2CCC1CC2` (configuration not stated), the activity change, negative = inhibition is inactive: -3.23%.
As to `O=C(Nc1ccncc1[N+](=O)[O-])c1ccc([N+](=O)[O-])cc1[N+](=O)[O-]`, the activity change, negative = inhibition was inactive: 0.194%.
As for `CCOC(=O)Nc1cccc([As](=O)(O)O)c1`, the figure is inactive: -18.4%.
The result for `O=P(Nc1ccccn1)(c1cccc2ccccc12)c1cccc2ccccc12` reads inactive: 13.9%; that for `Cc1cc(SC(NC=O)C(Cl)(Cl)Cl)ncn1` (configuration not stated), inactive: 5.54%; that for `CN(N=O)C(=N)N[N+](=O)[O-]`, inactive: -1.87%.
Turning to `O=[N+]([O-])c1ccc(Nc2ccc(Oc3ccc([N+](=O)[O-])cc3[N+](=O)[O-])cc2)c([N+](=O)[O-])c1`, the activity change, negative = inhibition was inactive: -11.8%.
As for `CCOC(=O)Nc1ccc([As](=O)(O)O)c(O)c1`, the figure is inactive: -1.98%.
As for `CCCCOc1ccc(C(=O)NCC2(N3CCCCC3)CCCCC2)cc1OC`, the figure is inactive: -5.25%.
With `ClCCSc1nnc(-c2cccnc2)o1`, the activity change, negative = inhibition is inactive: 10.5%.
On to `CC(C)NC(=O)NP(=O)(Oc1ccccc1)Oc1ccccc1`, for which the activity change, negative = inhibition is inactive: -1.41%.
The result for `CCN(CC)C(=S)SC(NC=O)C(Cl)(Cl)Cl` (configuration not stated) reads inactive: 3.35%; that for `C[As](=O)(O)c1cccc(C(=O)O)c1`, inactive: -13.8%.
As for `O=[As](O)(c1ccc(O)cc1)c1ccccc1O`, the figure is inactive: 20%; as for `Cc1ccc(OP(=O)(Nc2ccc([N+](=O)[O-])cn2)Oc2ccc(C)cc2)cc1`, inactive: 3.57%.

Values taken from PubChem BioAssay AID2101 (National Center for Advancing Translational Sciences (NCATS), 2009).
